# Patent US20080069857A1, “Compositions And Methods For Inhibiting Adhesions” (priority 2006, published 2008)
# Tested on: Human mesothelial cells (ATCC, CRL-9444)
# Assay: In vitro cell viability assay (MTT), mesothelial cells
# Settings: range of concentrations of uncross-linked polymers; 3 days incubation
substance,measurement,value
hyaluronic acid-adipic dihydrazide-dexamethasone-succinate [HA-DEX],effect of polymers on mesothelial cell viability (MTT),larger reduction in the viability
